Results from US20090099157A1, “TETRAHYDRO-PYRAZOLO-PYRIDINE THIOETHER MODULATORS OF CATHEPSIN S” (priority 2007, published 2009).

Amino acid sequences for entries named in this document (tags omitted). Residues count along the entry.
UniProt P25774, 115-331: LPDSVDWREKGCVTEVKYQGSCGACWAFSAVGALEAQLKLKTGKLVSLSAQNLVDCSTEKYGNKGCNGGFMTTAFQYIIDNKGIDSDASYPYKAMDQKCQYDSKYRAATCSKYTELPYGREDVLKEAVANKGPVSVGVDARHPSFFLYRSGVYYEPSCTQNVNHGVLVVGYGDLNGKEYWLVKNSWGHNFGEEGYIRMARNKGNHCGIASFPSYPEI

Target: Recombinant human cathepsin S (CatS) (Homo sapiens, UniProt P25774)
Test: biochemical

SMILES	IC50 [nM]
CS(=O)(=O)N1CCc2c(c(-c3ccc(C(F)(F)F)c(SCCN4CCC(N5CCCC5)CC4)c3)nn2CC(O)CN2CCC(c3nnnn3Cc3ccccc3)CC2)C1 (stereo not drawn) [Example 896, 1-{5-(Methylsulfonyl)-3-[3-{[2-(4-pyrrolidin-1-ylpiperidin-1-yl)ethyl]sulfanyl}-4-(trifluoromethyl)phenyl]-4,5,6,7-tetrahydro-1H-pyrazolo[4,3-c]pyridin-1-yl}-3-{4-[1-(phenylmethyl)-1H-tetrazol-5-yl]piperidin-1-yl}propan-2-ol]	420
CS(=O)(=O)N1CCc2c(c(-c3ccc(C(F)(F)F)c(SCC(=O)N4CCCC(F)C4)c3)nn2CCCN2CCC(N3CCCC3=O)CC2)C1 (stereo not drawn) [Example 82, 1-{1-[3-(3-{3-[2-(3-Fluoro-piperidin-1-yl)-2-oxo-ethylsulfanyl]-4-trifluoromethyl-phenyl}-5-methanesulfonyl-4,5,6,7-tetrahydro-pyrazolo[4,3-c]pyridin-1-yl)-propyl]-piperidin-4-yl}-pyrrolidin-2-one]	200
Oc1ccccc1N1CCN(C[C@H](O)Cn2nc(-c3ccc(C(F)(F)F)c(SCCN4CCC(F)CC4)c3)c3c2CCNC3)CC1 [Example 478, 2-{4-[(2S)-3-{3-[3-{[2-(4-Fluoropiperidin-1-yl)ethyl]sulfanyl}-4-(trifluoromethyl)phenyl]-4,5,6,7-tetrahydro-1H-pyrazolo[4,3-c]pyridin-1-yl}-2-hydroxypropyl]piperazin-1-yl}phenol]	350
CN(C)c1ccc(NC(=O)N2CCc3c(c(-c4ccc(C(F)(F)F)c(SCCN5CCC(F)CC5)c4)nn3C[C@@H](O)CN3CCCCC3)C2)cc1 [Example 763, N-[4-(Dimethylamino)phenyl]-3-[3-{[2-(4-fluoropiperidin-1-yl)ethyl]sulfanyl}-4-(trifluoromethyl)phenyl]-1-[(2S)-2-hydroxy-3-piperidin-1-ylpropyl]-1,4,6,7-tetrahydro-5H-pyrazolo[4,3-c]pyridine-5-carboxamide]	230
CC(=O)N1CCc2c(c(-c3ccc(C(F)(F)F)c(SCC(=O)N4CCCC4)c3)nn2CC(O)CN2CCC(C)(C)CC2)C1 (stereo not drawn) [Example 330, 1-(5-Acetyl-3-{3-[(2-oxo-2-pyrrolidin-1-ylethyl)sulfanyl]-4-(trifluoromethyl)phenyl}-4,5,6,7-tetrahydro-1H-pyrazolo[4,3-c]pyridin-1-yl)-3-(4,4-dimethylpiperidin-1-yl)propan-2-ol]	290
CC(C)(C)C1CCN(C[C@H](O)Cn2nc(-c3ccc(C(F)(F)F)c(SCCN4CCCC(F)(F)C4)c3)c3c2CCN(S(C)(=O)=O)C3)CC1 [Example 707, (2S)-1-{3-[3-{[2-(3,3-Difluoropiperidin-1-yl)ethyl]sulfanyl}-4-(trifluoromethyl)phenyl]-5-(methylsulfonyl)-4,5,6,7-tetrahydro-1H-pyrazolo[4,3-c]pyridin-1-yl}-3-[4-(1,1-dimethylethyl)piperidin-1-yl]propan-2-ol]	70
CS(=O)(=O)NCCSc1cc(-c2nn(CC(O)CN3CCC(c4ccccn4)CC3)c3c2CN(S(C)(=O)=O)CC3)ccc1C(F)(F)F (stereo not drawn) [Example 690, N-(2-{[5-{1-[2-Hydroxy-3-(4-pyridin-2-ylpiperidin-1-yl)propyl]-5-(methylsulfonyl)-4,5,6,7-tetrahydro-1H-pyrazolo[4,3-c]pyridin-3-yl}-2-(trifluoromethyl)phenyl]sulfanyl}ethyl)methanesulfonamide]	10
CS(=O)(=O)N1CCc2c(c(-c3ccc(C(F)(F)F)c(SCCNCc4cccs4)c3)nn2CCCN2CCC(N3CCCC3=O)CC2)C1 [Example 42, 1-(1-{3-[5-Methanesulfonyl-3-(3-{2-[(thiophen-2-ylmethyl)-amino]-ethylsulfanyl}-4-trifluoromethyl-phenyl)-4,5,6,7-tetrahydro-pyrazolo[4,3-c]pyridin-1-yl]-propyl}-piperidin-4-yl)-pyrrolidin-2-one]	380
CC(C)(O)C1CCN(C[C@H](O)Cn2nc(-c3ccc(C(F)(F)F)c(SCCN4CCC5CCCCC5C4)c3)c3c2CCN(S(C)(=O)=O)C3)CC1 (stereo partly drawn) [Example 803, (2S)-1-[4-(1-Hydroxy-1-methylethyl)piperidin-1-yl]-3-{5-(methylsulfonyl)-3-[3-{[2-(octahydroisoquinolin-2(1H)-yl)ethyl]sulfanyl}-4-(trifluoromethyl)phenyl]-4,5,6,7-tetrahydro-1H-pyrazolo[4,3-c]pyridin-1-yl}propan-2-ol]	60
Oc1cccc(N2CCN(C[C@H](O)Cn3nc(-c4ccc(C(F)(F)F)c(SCCN5CCC(F)CC5)c4)c4c3CCNC4)CC2)c1 [Example 479, 3-{4-[(2S)-3-{3-[3-{[2-(4-Fluoropiperidin-1-yl)ethyl]sulfanyl}-4-(trifluoromethyl)phenyl]-4,5,6,7-tetrahydro-1H-pyrazolo[4,3-c]pyridin-1-yl}-2-hydroxypropyl]piperazin-1-yl}phenol]	480
CS(=O)(=O)N1CCc2c(c(-c3ccc(C(F)(F)F)c(SCC(=O)N4CCC[C@@H]4C(N)=O)c3)nn2CCCN2CCC(N3CCCC3=O)CC2)C1 [Example 108, (R)-1-{2-[5-(5-Methanesulfonyl-1-{3-[4-(2-oxo-pyrrolidin-1-yl)-piperidin-1-yl]-propyl}-4,5,6,7-tetrahydro-1H-pyrazolo[4,3-c]pyridin-3-yl)-2-trifluoromethyl-phenylsulfanyl]-acetyl}-pyrrolidine-2-carboxylic acid amide]	90

More lines, now with the values ahead:

IC50 [nM]	SMILES
80	CS(=O)(=O)N1CCc2c(c(-c3ccc(C(F)(F)F)c(SCCN4CCCC4)c3)nn2CC(O)CN2CCC(NC(=O)CO)CC2)C1 (stereo not drawn) [Example 603, 2-Hydroxy-N-(1-{2-hydroxy-3-[5-(methylsulfonyl)-3-{3-[(2-pyrrolidin-1-ylethyl)sulfanyl]-4-(trifluoromethyl)phenyl}-4,5,6,7-tetrahydro-1H-pyrazolo[4,3-c]pyridin-1-yl]propyl}piperidin-4-yl)acetamide]
60	CS(=O)(=O)N1CCc2c(c(-c3ccc(C(F)(F)F)c(SCCN4CCOC(CO)C4)c3)nn2CC(O)CN2CCC(N3CCCC3=O)CC2)C1 (stereo not drawn) [Example 165, 1-[1-(2-Hydroxy-3-{3-[3-({2-[2-(hydroxymethyl)morpholin-4-yl]ethyl}sulfanyl)-4-(trifluoromethyl)phenyl]-5-(methylsulfonyl)-4,5,6,7-tetrahydro-1H-pyrazolo[4,3-c]pyridin-1-yl}propyl)piperidin-4-yl]pyrrolidin-2-one]
330	CS(=O)(=O)N1CCc2c(c(-c3ccc(C(F)(F)F)c(SCCN4CCOCC4)c3)nn2CC(O)CN2CCC(C(=O)N3CCOCC3)CC2)C1 (stereo not drawn) [Example 817, 1-[5-(Methylsulfonyl)-3-{3-[(2-morpholin-4-ylethyl)sulfanyl]-4-(trifluoromethyl)phenyl}-4,5,6,7-tetrahydro-1H-pyrazolo[4,3-c]pyridin-1-yl]-3-[4-(morpholin-4-ylcarbonyl)piperidin-1-yl]propan-2-ol]
190	CS(=O)(=O)N1CCc2c(c(-c3ccc(C(F)(F)F)c(SCCN4CCC(F)CC4)c3)nn2C[C@@H](O)CN2CCC[C@@H](C(=O)O)C2)C1 [Example 614, (3R)-1-[(2S)-3-{3-[3-{[2-(4-Fluoropiperidin-1-yl)ethyl]sulfanyl}-4-(trifluoromethyl)phenyl]-5-(methylsulfonyl)-4,5,6,7-tetrahydro-1H-pyrazolo[4,3-c]pyridin-1-yl}-2-hydroxypropyl]piperidine-3-carboxylic acid]
60	CS(=O)(=O)NC1CCN(CC(O)Cn2nc(-c3ccc(C(F)(F)F)c(SCCN4CCC(F)CC4)c3)c3c2CCN(S(C)(=O)=O)C3)CC1 (stereo not drawn) [Example 794, N-[1-(3-{3-[3-{[2-(4-Fluoropiperidin-1-yl)ethyl]sulfanyl}-4-(trifluoromethyl)phenyl]-5-(methylsulfonyl)-4,5,6,7-tetrahydro-1H-pyrazolo[4,3-c]pyridin-1-yl}-2-hydroxypropyl)piperidin-4-yl]methanesulfonamide]
250	CS(=O)(=O)N1CCc2c(c(-c3ccc(C(F)(F)F)c(SCCN4CCC(F)CC4)c3)nn2C[C@@H](O)CN2CCCC(F)C2)C1 (stereo partly drawn) [Example 500, (2S)-1-(3-Fluoropiperidin-1-yl)-3-{3-[3-{[2-(4-fluoropiperidin-1-yl)ethyl]sulfanyl}-4-(trifluoromethyl)phenyl]-5-(methylsulfonyl)-4,5,6,7-tetrahydro-1H-pyrazolo[4,3-c]pyridin-1-yl}propan-2-ol]
2990	CC1C(=O)NCCN1CC(O)Cn1nc(-c2ccc(C(F)(F)F)c(SCCN3CCOCC3)c2)c2c1CCN(S(C)(=O)=O)C2 (stereo not drawn) [Example 459, 4-{2-Hydroxy-3-[5-(methylsulfonyl)-3-{3-[(2-morpholin-4-ylethyl)sulfanyl]-4-(trifluoromethyl)phenyl}-4,5,6,7-tetrahydro-1H-pyrazolo[4,3-c]pyridin-1-yl]propyl}-3-methylpiperazin-2-one]
3960	CN1CCN(CC(O)Cn2nc(-c3ccc(C(F)(F)F)c(SCCN4CCOCC4)c3)c3c2CCN(S(C)(=O)=O)C3)CC1 (stereo not drawn) [Example 396, 1-(4-Methylpiperazin-1-yl)-3-[5-(methylsulfonyl)-3-{3-[(2-morpholin-4-ylethyl)sulfanyl]-4-(trifluoromethyl)phenyl}-4,5,6,7-tetrahydro-1H-pyrazolo[4,3-c]pyridin-1-yl]propan-2-ol]
320	CS(=O)(=O)N1CCc2c(c(-c3ccc(C(F)(F)F)c(SCCN4CCC(F)CC4)c3)nn2CC(O)CN2CCC[C@@H](C(=O)O)C2)C1 (stereo partly drawn) [Example 613, (3R)-1-(3-{3-[3-{[2-(4-Fluoropiperidin-1-yl)ethyl]sulfanyl}-4-(trifluoromethyl)phenyl]-5-(methylsulfonyl)-4,5,6,7-tetrahydro-1H-pyrazolo[4,3-c]pyridin-1-yl}-2-hydroxypropyl)piperidine-3-carboxylic acid]
640	CC1C(=O)NCCN1CCSc1cc(-c2nn(CC(O)CN3CCCCC3)c3c2CN(S(C)(=O)=O)CC3)ccc1C(F)(F)F (stereo not drawn) [Example 166, 4-[2-({5-[1-(2-Hydroxy-3-piperidin-1-ylpropyl)-5-(methylsulfonyl)-4,5,6,7-tetrahydro-1H-pyrazolo[4,3-c]pyridin-3-yl]-2-(trifluoromethyl)phenyl}sulfanyl)ethyl]-3-methylpiperazin-2-one]
